Data from PubChem BioAssay AID1189 (EPA DSSTox, 2008).
Some results for these compounds are left out of this collection, so the calls shown say nothing about other tests. Active and inactive are the calls of the source.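 How the source made its calls: active means a tumor-causing dose value with its tumor site reported for any sex and species group of a rodent or other animal cancer study; inconclusive means only studies judged inadequate by the national testing program; inactive means tested in at least one study, none positive.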 A call without a number means that no potency is given here.

Test: DSSTox (CPDBAS) Carcinogenic Potency Database Summary SingleCellCall Results
Details: animal chronic carcinogenicity bioassays, CPDB summary call
From the text: The Carcinogenic Potency Database (CPDB) is a unique and widely used international resource of the results of over 6500 chronic, long-term animal cancer tests on over 1500 chemical substances. The CPDB provides easy access to the bioassay literature, with qualitative and quantitative analyses of both positive and negative experiments that have been published over the past 50 years in the general literature and by the National Cancer Institute/National Toxicology Program. The CPDB standardizes the diverse literature of cancer bioassays that vary widely in protocol, histopathological examination and nomenclature, and in the published author's choices of what information to provide in their papers. Results are reported in the CPDB for tests in rats, mice, hamsters, dogs, and nonhuman primates, and are based on the most positive result among all experiments for each sex-species. The DSSTox CPDBAS (all species) file incorporates data from the CPDB Summary Tables for the full list of over 1500 chemical substances tested in at least one species. A summary SingleCellCall, based on experimental bioassay results of one or more species, is provided for the entire DSSTox CPDBAS file (see Source URL).
An assignment of categorical carcinogenic activity based on minimal evidence for or against activity. […]

In the case of N#CC(C#N)=Cc1ccccc1Cl, the outcome is reported as “inactive”.
